Measurements reported in patent US20170051112A1, “RESIN COMPOSITION SUITABLE FOR PRINTING AND PRINTING METHOD UTILIZING THE SAME” (MONTANUNIVERSITÄT LEOBEN, priority 2014, published 2017).

Tests used:
[1] = Measurement of viscosity (cone-and-plate viscosimeter); assay type: physicochemical
Protocol: For measuring the viscosity, an MC 200 cone-and-plate viscosimeter from Anton Paar GmbH (cone unit MK 22/50 mm, 10) was used. First, the shear rate was varied with a stepped slope and subsequently the viscosity was determined at a constant shear rate (300 s^−1) every 30 seconds. The measurement was carried out at 25° C.

[2] = system: L929 mice fibroblast cells; assay: Cytotoxicity (residual protein content of the cells); assay type: cell-based; details: toxicological concentration limit: reduction of protein content of L929 cells by more than 30% relative to negative control; incubation 48 h
Protocol: The cytotoxicity of various monomers was determined by a certified laboratory by means of L929 mice fibroblast cells. As a (toxic) positive control, Triton X 100 was added to L929 cells with a final concentration of 1% (v/v). As a (non-toxic) negative control, a cell culture medium was used.
After completion of the incubation, the residual protein content of the cells was determined. A reduction of the protein content from L929 cells by more than 30%, relative to the negative control, was evaluated as cytotoxic (which corresponds to the toxicological concentration limit). From this, the half maximal effective concentration (EC50), at which 50% of the cells are damaged, can be calculated.

1,4-butanediol dipropargyl carbonate
Viscosity, in words ([1]; 25° C.): significantly higher viscosity
Viscosity at 25° C. ([1]; constant shear rate 300 s^-1, 25° C.): 44.2 mPa*s
Concentration limit [2]: >300 µM
